Assay results from publication PMC4834588 (British Journal of Clinical Pharmacology, 2016).

Experiment: Log P by HPLC retention on C18 column
Settings: from standard curve of Log k vs known Log P
Source text: The method for the generation of Log P values by high performance liquid chromatography (HPLC) was adapted from that described by Zhao et al. 22. Briefly, Log P correlates with the retention time of a compound by a solid phase C18 column. […] By using compounds with known Log P values, a standard curve can be determined and the Log P of a compound of interest obtained by interpolation. A Waters HPLC system, linked to an Agilent fluorescence detector, was used along with a Luna 5 μ C18 50 × 2.0 mm HPLC column preceded by a guard column (Phenomenex, Macclesfield, UK). […] The sample holder for the HPLC was set at 25 °C in order to prevent freezing of the DMSO during the run. The mobile phase consisted of deionized water and acetonitrile with a constant gradient of 40–60%, respectively.
Prior to each run the column was equilibrated to the running conditions for 10 minutes, with the flow rate set to 0.5 ml min^−1. A 20‐μl aliquot of each sample was injected into the column and its retention time measured relative to that of the sodium nitrate peak. Peaks were analysed using Empower software (Waters, Wilmslow, UK).

Compound: Oc1ccccc1 [Phenol]
- Experimental Log P: 1.49
